For two molecules, IC50 results are on record in US5112848A, “Furan and pyrrole containing lipoxygenase inhibiting compounds” (Abbott Laboratories, priority 1990, dated 1992).

This test concerns the target T1, 5-lipoxygenase (Rattus norvegicus, UniProt P12527).
T1 construct: 20,000× g supernatant from homogenized RBL-1 cells; endogenous in cells; host or cells: RBL-1 cells (20,000 x g supernatant of homogenate)
T1 sequence (P12527 1-673): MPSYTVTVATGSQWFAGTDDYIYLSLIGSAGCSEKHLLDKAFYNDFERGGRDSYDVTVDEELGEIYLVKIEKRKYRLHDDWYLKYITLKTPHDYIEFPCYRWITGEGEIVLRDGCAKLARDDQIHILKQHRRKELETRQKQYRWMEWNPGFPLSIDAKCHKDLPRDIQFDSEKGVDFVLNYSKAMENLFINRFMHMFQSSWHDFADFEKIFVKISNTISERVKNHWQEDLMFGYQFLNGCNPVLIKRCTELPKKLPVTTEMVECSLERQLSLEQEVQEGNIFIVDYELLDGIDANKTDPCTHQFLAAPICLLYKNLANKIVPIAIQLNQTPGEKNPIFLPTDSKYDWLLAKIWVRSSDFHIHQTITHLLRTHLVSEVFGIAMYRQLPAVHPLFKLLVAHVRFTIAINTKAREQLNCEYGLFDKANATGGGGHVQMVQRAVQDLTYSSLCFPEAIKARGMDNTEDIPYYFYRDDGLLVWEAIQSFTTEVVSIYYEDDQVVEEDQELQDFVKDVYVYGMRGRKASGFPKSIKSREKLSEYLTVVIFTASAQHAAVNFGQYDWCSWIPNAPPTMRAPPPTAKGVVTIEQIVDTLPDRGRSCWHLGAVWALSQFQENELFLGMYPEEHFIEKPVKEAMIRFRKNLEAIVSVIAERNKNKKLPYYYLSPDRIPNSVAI
Briefly: Inhibition of 5-lipoxygenase (20,000× g supernatant from homogenized RBL-1 cells). The format is biochemical. The settings on record: read-out: IC50 (concentration of compound producing 50% enzyme inhibition), linear regression of percentage inhibition versus log concentration. As for the experimental part: Inhibition of 5-lipoxygenase activity was determined using the 20,000× g supernatant from homogenized RBL-1 cells in a similar manner to that described by Dyer and coworkers (Dyer, R. D.; Haviv, F.; Hanel, A. M.; Bornemier, D. A.; Carter, G. W. Fed. Proc., Fed. Am. Soc. Exp. Biol. 1984, 43, 1462A).

Consider `Cc1cc(C)c(-c2ccc(C(C)N(O)C(N)=O)o2)c(C)c1` (centres unmarked) [Example 12, N-hydroxy-N-(5-(2,4,6-trimethylphenyl)-fur-2-ylethyl) urea], for which the IC50 was 0.3 µM.

In the case of `CC(c1ccoc1)N(O)C(N)=O` (centres unmarked) [Example 56, N-Hydroxy-N-(1-fur-3-ylethyl) urea], the IC50 is 15 µM.
